# Results published in patent US7320679B2, “Therapeutic use of growth factor, and delivery device, especially for the treatment of intimal hyperplasia” (Ark Therapeutics, Ltd., priority 1996, dated 2008).
# Several values for one entry are separate records, joined by “and”; a condition that tells them apart may be missing. Equal values may be shown once.
# Tested on: p42/p44 MAP kinases
# Assay: MAP kinase assay (phospho-p42/p44 immunoblot) in HUVEC
# Format: cell-based, human
# Settings: 15 min exposure
# Procedure: Cell Culture: HUVECs were obtained either from Clonetics and cultured in the manufacturer's own medium supplemented with 2% FBS, or were grown from fresh umbilical cords by collagenase digestion and cultured on 1% gelatin-coated plates in medium 199 supplemented with 20% FCS and endothelial cell growth supplement (Wheeler-Jones et al, Biochem. J. (1996) 315:407-416). For experimental purposes, primary cultures of HUVEC were dispersed by treatment with 0.05% trypsin/0.02% EDTA for 5 min at 37° C. and then replated in either 90 mm, 60 mm or 35 mm plastic dishes, or onto 24-well plates. […] The PGI2 content of cell supernatants was quantified by radioimmunoassay of 6-keto-PGF1a, the stable breakdown product of PGI2 as previously described (Wheeler-Jones et al, supra). Arachidonic Acid Release: Arachidonic acid release was determined essentially as described (Domin and Rozengurt, J. Biol. Chem. (1993) 268:8927-8934.). […] After treatment, the medium was removed, centrifuged in a microcentrifuge at 16,000×g for 5 min, and the radioactivity in the supernatant was determined by counting in a scintillation counter. […] Assay of vWF Secretion: vWF secretion was measured by ELISA (Wheeler-Jones et al, supra) in samples of medium obtained from confluent cultures of HUVECs which had been treated with factors, as indicated. […]
substance,measurement,value
VEGF,lowest concentration with detectable increase in MAP kinase activity,0.5 ng/mL and 1 ng/mL
